According to article PMC3210965 (Chemical research in toxicology, 2011):

Tests used:
[1] = cited from earlier work
HeLa cells = test: Cell viability MTS assay; format: cell-based, human
rat TrxR = biological target: T1, rat TrxR (Rattus norvegicus, UniProt O89049)
T1 sequence (O89049 1-499): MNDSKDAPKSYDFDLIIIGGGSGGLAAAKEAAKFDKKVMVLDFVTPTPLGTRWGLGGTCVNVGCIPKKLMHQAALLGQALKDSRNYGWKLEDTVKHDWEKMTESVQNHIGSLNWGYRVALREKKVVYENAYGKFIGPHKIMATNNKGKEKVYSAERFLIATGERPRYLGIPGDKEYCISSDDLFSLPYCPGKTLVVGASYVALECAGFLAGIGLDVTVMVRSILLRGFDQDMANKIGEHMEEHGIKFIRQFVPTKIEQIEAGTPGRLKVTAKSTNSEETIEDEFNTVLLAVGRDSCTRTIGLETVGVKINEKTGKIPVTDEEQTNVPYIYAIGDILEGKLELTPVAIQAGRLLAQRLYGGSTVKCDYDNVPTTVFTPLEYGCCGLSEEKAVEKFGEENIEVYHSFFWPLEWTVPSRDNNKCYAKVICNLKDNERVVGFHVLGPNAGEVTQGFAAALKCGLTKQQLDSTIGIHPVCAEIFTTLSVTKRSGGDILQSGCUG

CC1=C2C(=C[C@@](C)(CO)[C@@H]2O)C(=O)[C@](C)(O)C12CC2 [illudin S]
toxicity in vitro relative to AF [1]: around 30 fold | toxicity relative to AF (HeLa cells; concentration range tested): at least 100 fold | inhibition of cell viability (HeLa cells; concentrations higher than 1 μM): more than 40% | IC50 toward TrxR relative to that of the AFs (rat TrxR): 100 fold
